Data taken from patent publication US20100158980A1, “DRUG DELIVERY DEVICES FOR DELIVERY OF THERAPEUTIC AGENTS” (priority 2008, published 2010).

Test: Solubility of active agents
Conditions: PBS at pH=7.2-7.4
From the text: The active agent may be any active agent suitable to treat the desired condition. […] Examples include, but are not limited to, acetazolamide, dorzolamide HCl, timolol maleate, and ethacrynic acid sodium salt.

latanoprost arginine salt
solubility class: moderate solubility
